The test system of this experiment is human neural stem cells (hNSCs). In words: Neuronal differentiation of human neural stem cells (TUJ-1 antibody staining). Conditions: FIG. 1; metformin CRC 0.01 μM to 31.6 μM, azakenpaullone CRC 0.001 μM to 3.2 μM, alone or in combination; basal media values subtracted.

The results in this text go back to patent publication US20080188457A1, “Modulation of Neurogenesis with Biguanides and GSK3-beta Agents” (BrainCells, Inc., priority 2007, published 2008).

The structures appear in SMILES notation.

`O=C1Cc2c([nH]c3ccc(Br)cc23)-c2ncccc2N1` [azakenpaullone]: the “maximum neuronal differentiation percent of positive control” value was found to be 120%.
In the case of `CN(C)C(=N)NC(=N)N` [metformin, 1,1-Dimethylbiguanide], the “maximum neuronal differentiation percent of positive control” value stood at 10%.
